Amino acid sequences for entries named in this document (tags omitted). Residues count along the entry.
UniProt P43220, 24-463: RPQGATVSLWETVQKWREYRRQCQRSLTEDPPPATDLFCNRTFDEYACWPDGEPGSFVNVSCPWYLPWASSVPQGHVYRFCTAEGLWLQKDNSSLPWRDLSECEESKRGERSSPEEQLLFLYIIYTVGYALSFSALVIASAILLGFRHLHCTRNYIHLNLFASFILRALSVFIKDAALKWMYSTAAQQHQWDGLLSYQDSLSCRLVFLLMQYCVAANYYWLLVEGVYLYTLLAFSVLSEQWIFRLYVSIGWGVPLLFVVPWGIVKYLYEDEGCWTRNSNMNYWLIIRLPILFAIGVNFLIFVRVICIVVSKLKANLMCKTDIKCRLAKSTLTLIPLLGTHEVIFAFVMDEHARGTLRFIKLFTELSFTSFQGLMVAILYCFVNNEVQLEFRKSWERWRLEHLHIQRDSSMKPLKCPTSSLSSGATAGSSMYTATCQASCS

According to patent US20160369010A1 (AstraZeneca / MedImmune, published 2016):

Experiments:
human GLP-1 receptor = human GLP-1 receptor (human, UniProt P43220 24-463); assay: cell-based or functional assay
[1] = molecular target: T1, cynomolgus Avi_PCSK9_Flag_His (cynomolgus, UniProt A0A2K5TZC4 150-811); assay: SPR (Biacore), IgG captured
T1 construct: In-house protein; also called cynomolgus PCSK9; CyPCSK9

Row | Binder | EC50, cAMP assay (human GLP-1 receptor) | Kd [1]
1 | PC9_2_Exe4_DSB#9 (antibody) chain 1: QVQLVQSGAEVKKPGASVKVSCKASGYTFTSYYMHWVRQAPGQGLEWMGEIHPSGGRTNYNEKFKSRVTMTRDTSTSTVYMELSSLRSEDTAVYYCARERPLYASDLWGQGTTVTVSS chain 2: HGEGTFTSDLSKQMEEEAVRCFIEWLKNGGPSSGAPPCGGDIQMTQSPSSLSASVGDRVTITCKASQDVHTAVAWYQQKPGKAPKLLIYHASYRYTGVPSRFSGSGSGTDFTFTISSLQPEDIATYYCQQRYSLWRTFGQGTKLEIK | 124 pM | 
2 | HS9_DSB7 (antibody, also called PC9_HS9_DSB#7) VH: QVQLVQSGAEVKKPGASVKVSCKASGYTFTSYYMHWVRQAPGQGLEWMGEISPSGGSTSYNQKFQGRVTMTRDTSTSTVYMELSSLRSEDTAVYYCARERPLYASDLWGQGTTVTVSS VL: HGEGTFTSDLSKQMEEECVRLFIEWLKNGGPSSGAPPPGCGGGGGSGGGGSGGGGSADIQMTQSPSSLSASVGDRVTITCQASQDVKTAVAWYQQKPGKAPKLLIYSASYRYTGVPSRFSGSGSGTDFTFTISSLQPEDIATYYCQQRYSLWRTFGQGTKLEIK |  | 2.99 nM
